{
  "sequences": {"note": "By UniProt entry, the sequences of proteins in these tests, tags left out.", "UniProt P47898, whole entry, looked up": "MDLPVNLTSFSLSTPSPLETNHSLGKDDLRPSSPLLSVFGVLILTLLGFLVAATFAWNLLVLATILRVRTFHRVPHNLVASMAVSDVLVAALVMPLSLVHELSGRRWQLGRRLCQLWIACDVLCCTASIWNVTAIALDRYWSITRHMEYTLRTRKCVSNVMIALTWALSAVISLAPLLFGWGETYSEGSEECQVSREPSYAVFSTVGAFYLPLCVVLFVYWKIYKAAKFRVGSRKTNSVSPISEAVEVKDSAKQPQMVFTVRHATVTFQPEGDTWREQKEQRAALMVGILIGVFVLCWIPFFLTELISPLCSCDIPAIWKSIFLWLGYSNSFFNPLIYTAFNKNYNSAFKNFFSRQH"},
  "source": "PubChem BioAssay AID651688",
  "about": "(The Scripps Research Institute Molecular Screening Center, 2012)",
  "target": "5-hydroxytryptamine receptor 5A (Homo sapiens) (UniProt P47898)",
  "test": "activation of human HTR5A receptor, late-stage follow-up, counter-screen for OPRM1-OPRD1 heterodimer activator project, cell-based, luminescence, dose response (AID 651688)",
  "conditions": "HTR5A counterscreen cells, luminescence (beta-arrestin/complementation)",
  "note": "Calls of active or inactive are those of the source. The rule behind the calls is not given here.",
  "data": [
    {"molecule": "CCOc1ccc(CN2CCC(Nc3cccc4ccccc34)CC2)cc1C#N", "values": [
      {"measurement": "EC50", "value": "inactive: > 40 µM"}
    ]}
  ]
}
